# Patent publication US6887878B2, “KMST isoeugenol derivatives and pharmaceutical activity” (Ing-Jun Chen, priority 2003, dated 2005)
# By UniProt entry, the sequences of proteins in these tests, tags left out.
# UniProt P14842, whole entry: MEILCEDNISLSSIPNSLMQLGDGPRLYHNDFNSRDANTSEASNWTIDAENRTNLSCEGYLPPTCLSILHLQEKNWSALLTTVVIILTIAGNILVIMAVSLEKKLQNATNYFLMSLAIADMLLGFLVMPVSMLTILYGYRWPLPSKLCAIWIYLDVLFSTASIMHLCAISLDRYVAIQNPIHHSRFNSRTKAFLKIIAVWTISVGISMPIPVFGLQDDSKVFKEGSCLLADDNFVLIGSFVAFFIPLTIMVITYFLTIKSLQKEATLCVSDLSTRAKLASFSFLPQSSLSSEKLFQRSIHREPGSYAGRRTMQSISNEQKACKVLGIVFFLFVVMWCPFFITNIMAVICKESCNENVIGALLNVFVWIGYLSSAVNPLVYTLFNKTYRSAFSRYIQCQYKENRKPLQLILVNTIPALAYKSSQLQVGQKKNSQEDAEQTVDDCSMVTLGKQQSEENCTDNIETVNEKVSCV
# UniProt P19327, whole entry: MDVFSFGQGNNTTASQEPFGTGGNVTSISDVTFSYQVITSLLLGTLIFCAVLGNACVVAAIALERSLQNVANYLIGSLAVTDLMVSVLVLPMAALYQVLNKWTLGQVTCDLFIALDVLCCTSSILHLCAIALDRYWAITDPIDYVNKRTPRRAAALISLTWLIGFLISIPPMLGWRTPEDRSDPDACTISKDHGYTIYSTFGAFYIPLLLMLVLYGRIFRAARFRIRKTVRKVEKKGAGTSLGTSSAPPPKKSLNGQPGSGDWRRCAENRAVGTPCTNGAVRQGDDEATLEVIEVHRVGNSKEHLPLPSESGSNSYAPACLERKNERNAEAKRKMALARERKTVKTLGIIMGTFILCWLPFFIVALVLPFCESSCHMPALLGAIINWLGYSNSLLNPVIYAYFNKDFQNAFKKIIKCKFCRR
# Tests used:
# 5-HT2A receptor = 5-HT2A receptor (Rattus norvegicus, UniProt P14842); experiment: [3H]ketanserin receptor binding in rat cortex
# 5-HT1A = 5-HT1A (Rattus norvegicus, UniProt P19327); experiment: [3H]WAY100635 receptor binding
Compound,Ki (5-HT2A receptor),Ki (5-HT1A)
CC(C)NCC(O)COc1ccc(CC(N)=O)cc1 (stereo not drawn) [Atenolol],> 10000 nM,–
"NCCc1c[nH]c2ccc(O)cc12 [Compound 5-HT, 5-Hydroxytryptamine]",–,0.013 nM
CC(CCc1ccccc1)NCC(O)c1ccc(O)c(C(N)=O)c1 (stereo not drawn) [Labetalol],612 nM,–
